Only a part is listed here, and it is no random draw.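 Assay: single dose, 48 h. Readout: percent growth (0 = no net growth; negative = cell death). Active: <10.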 Active and inactive are the calls of the source.
Columns and labels:
Assay in all cases: NCI-60 one-dose screen, 48 h (100 = growth as untreated, 0 = no growth, -100 = all killed)
Settings in all cases: 10 µM unless noted
NCI-H23 lung = tested on: NCI-H23 lung
NCI-H226 lung = tested on: NCI-H226 lung
NCI-H322M lung = tested on: NCI-H322M lung
HOP-62 NSCLC = tested on: HOP-62 NSCLC
NCI-H460 lung = tested on: NCI-H460 lung
HOP-92 NSCLC = tested on: HOP-92 NSCLC
NCI-H522 lung = tested on: NCI-H522 lung
A549/ATCC NSCLC = tested on: A549/ATCC NSCLC
786-0 renal = tested on: 786-0 renal
COLO 205 colon = tested on: COLO 205 colon
DU-145 prostate = tested on: DU-145 prostate
K-562 leukemia = tested on: K-562 leukemia
MALME-3M melanoma = tested on: MALME-3M melanoma
MDA-MB-231 breast = tested on: MDA-MB-231 breast
SF-268 CNS = tested on: SF-268 CNS
SF-295 CNS = tested on: SF-295 CNS
SF-539 CNS = tested on: SF-539 CNS
UACC-257 melanoma = tested on: UACC-257 melanoma
M14 melanoma = tested on: M14 melanoma
RXF 393 renal = tested on: RXF 393 renal

Row | SMILES | growth (NCI-H23 lung) | growth (NCI-H226 lung) | growth (NCI-H322M lung) | growth (HOP-62 NSCLC) | growth (NCI-H460 lung) | growth (HOP-92 NSCLC) | growth (NCI-H522 lung) | growth (A549/ATCC NSCLC) | growth (786-0 renal) | growth (COLO 205 colon) | growth (DU-145 prostate) | growth (K-562 leukemia) | growth (MALME-3M melanoma) | growth (MDA-MB-231 breast) | growth (SF-268 CNS) | growth (SF-295 CNS) | growth (SF-539 CNS) | growth (UACC-257 melanoma) | growth (M14 melanoma) | growth (RXF 393 renal)
1 | CCOP(=S)(OCC)SCCCl | inactive: 100% | inactive: 104% | inactive: 108% | inactive: 104% | inactive: 108% | inactive: 101% | inactive: 88.5% | inactive: 99% | inactive: 101% | inactive: 118% | inactive: 105% | inactive: 102% | inactive: 112% | inactive: 100% | inactive: 105% | inactive: 87.1% | inactive: 99.9% | inactive: 88.6% | inactive: 102% | 
2 | O=[As](O)(c1ccc(Cl)cc1)C1CCCCC1O (configuration not stated) | inactive: 95.6% | inactive: 95% | inactive: 123% | inactive: 99.2% | inactive: 114% | inactive: 60.9% | inactive: 58.3% | inactive: 96.7% | inactive: 88.7% | inactive: 108% | inactive: 107% | inactive: 80% |  | inactive: 93.6% | inactive: 90.7% |  | inactive: 94.7% | inactive: 101% | inactive: 104% | inactive: 87.1%
3 | CCN(CCCl)CC1OC(O)C(O)C1O (configuration not stated) | inactive: 116% | inactive: 106% | inactive: 111% | inactive: 101% | inactive: 103% | inactive: 79.7% |  | inactive: 102% | inactive: 105% | inactive: 128% | inactive: 121% | inactive: 103% | inactive: 115% | inactive: 107% | inactive: 113% | inactive: 88.3% | inactive: 107% | inactive: 108% | inactive: 108% | inactive: 116%
4 | CCN(CC)CCOC(=O)C(O)(c1cccc(OC)c1OC)c1cccc(OC)c1OC | inactive: 103% | inactive: 87.9% | inactive: 101% | inactive: 88% | inactive: 98.9% | inactive: 84.1% | inactive: 73.4% | inactive: 90.1% | inactive: 101% |  | inactive: 107% | inactive: 119% | inactive: 105% | inactive: 106% | inactive: 102% | inactive: 98.9% | inactive: 101% | inactive: 92.6% | inactive: 95.5% | inactive: 112%
5 | CCN(CC)[P+](c1ccc(OC)cc1OC)(N(CC)CC)N(CC)CC | inactive: 30.1% | inactive: 45.7% | inactive: 102% | inactive: 33.8% | inactive: 21.6% | inactive: 42% | active: 2.3% | inactive: 31.3% | inactive: 68.6% | active: -5.78% | inactive: 32.8% | inactive: 15.5% | inactive: 59.9% | inactive: 47.8% | inactive: 34.3% | active: 1.82% | inactive: 73.2% | active: -13.4% | inactive: 43.3% | 
6 | CCOP(=O)(Nc1ccccc1)OCC | inactive: 105% | inactive: 90.2% | inactive: 103% | inactive: 90.6% | inactive: 107% | inactive: 85.4% |  | inactive: 94% | inactive: 105% | inactive: 112% | inactive: 115% | inactive: 99.6% | inactive: 104% | inactive: 101% | inactive: 101% | inactive: 127% | inactive: 106% | inactive: 86.5% | inactive: 101% | inactive: 101%
7 | CC[C@H](C)[C@@H]1NC(=O)/C(=C(\C)O)C1=O | inactive: 99.2% | inactive: 91.2% | inactive: 86.7% | inactive: 94.7% | inactive: 97.8% | inactive: 149% | inactive: 127% | inactive: 96.3% | inactive: 95.6% | inactive: 122% | inactive: 121% | inactive: 109% | inactive: 97.3% | inactive: 101% | inactive: 99.2% | inactive: 95.2% | inactive: 96.8% | inactive: 107% | inactive: 115% | 
8 | ClP1Nc2cncnc2N1 (configuration not stated) | inactive: 108% | inactive: 110% | inactive: 101% | inactive: 109% | inactive: 125% | inactive: 102% | inactive: 103% |  | inactive: 110% | inactive: 121% | inactive: 113% | inactive: 98.2% | inactive: 106% | inactive: 104% | inactive: 108% | inactive: 106% | inactive: 101% | inactive: 115% | inactive: 110% | inactive: 130%
9 | Cn1c(=O)c2[nH]c(N(CCCl)CCCl)nc2n(C)c1=O | inactive: 104% | inactive: 97.1% | inactive: 94% | inactive: 102% | inactive: 102% | inactive: 99.3% | inactive: 84.9% | inactive: 95% | inactive: 96.8% | inactive: 106% | inactive: 106% | inactive: 104% | inactive: 96.3% | inactive: 112% | inactive: 104% |  | inactive: 107% | inactive: 116% | inactive: 109% | inactive: 99.6%
10 | C=CCOP(O)OCC=C | inactive: 105% | inactive: 105% | inactive: 99.7% | inactive: 102% | inactive: 105% | inactive: 93.5% | inactive: 91.7% | inactive: 101% | inactive: 105% | inactive: 110% | inactive: 107% | inactive: 107% | inactive: 97.4% |  | inactive: 106% | inactive: 102% | inactive: 98.1% | inactive: 103% | inactive: 99.9% | inactive: 105%
11 | Cc1c([N+](=O)[O-])cc(C(=O)c2cc([N+](=O)[O-])cc([N+](=O)[O-])c2)cc1[N+](=O)[O-] | inactive: 90.9% | inactive: 101% | inactive: 102% | inactive: 114% | inactive: 99.2% | inactive: 109% | inactive: 88.3% | inactive: 99.1% | inactive: 114% | inactive: 90.7% | inactive: 99.2% | inactive: 83.3% | inactive: 70.4% | inactive: 92.6% | inactive: 105% | inactive: 109% | inactive: 105% | inactive: 89.3% | inactive: 97.8% | 
12 | CN(C)C(=O)Oc1ccc(/C=N/NC(N)=S)nc1 | inactive: 92.7% | inactive: 96% | inactive: 59.7% | inactive: 91.5% | inactive: 84.5% | inactive: 99.3% | inactive: 90.8% | inactive: 81.6% | inactive: 98.7% | inactive: 115% | inactive: 91.5% | inactive: 96.5% | inactive: 110% | inactive: 74.5% | inactive: 81.5% |  | inactive: 89.8% | inactive: 106% | inactive: 90.7% | 
13 | NC(=O)c1[nH]cnc1/N=N\N(CCCl)CCCl | inactive: 102% | inactive: 100% | inactive: 148% | inactive: 99.9% | inactive: 105% | inactive: 94.5% | inactive: 97.9% | inactive: 104% | inactive: 97.4% | inactive: 111% | inactive: 126% | inactive: 112% | inactive: 140% | inactive: 108% | inactive: 117% | inactive: 133% | inactive: 99.9% | inactive: 103% | inactive: 103% | 
14 | ClCCN1CCc2ccccc2C1 | inactive: 97.4% | inactive: 96.9% | inactive: 97.4% | inactive: 107% | inactive: 97.5% | inactive: 79.5% |  | inactive: 93.1% | inactive: 97.1% | inactive: 124% | inactive: 116% | inactive: 95.2% | inactive: 96.8% | inactive: 102% | inactive: 107% | inactive: 61% | inactive: 95.8% | inactive: 94.6% | inactive: 97.8% | inactive: 108%
15 | O=C(c1ccccc1)C(NCCCl)c1ccccc1 (configuration not stated) | inactive: 96.8% | inactive: 103% | inactive: 88.3% | inactive: 111% | inactive: 104% | inactive: 89.9% | inactive: 66.1% | inactive: 97.7% | inactive: 93.2% |  | inactive: 96.1% | inactive: 127% | inactive: 81.7% | inactive: 107% | inactive: 89.1% | inactive: 98.7% | inactive: 96.6% | inactive: 104% | inactive: 90% | inactive: 131%
16 | CC(C)c1nc(Nc2ccccc2)n(P(=O)(N(C)C)N(C)C)n1 | inactive: 100% | inactive: 94.4% | inactive: 100% | inactive: 105% | inactive: 105% | inactive: 83.7% | inactive: 94.5% | inactive: 90.8% | inactive: 101% |  | inactive: 116% | inactive: 121% | inactive: 109% | inactive: 102% | inactive: 102% | inactive: 94.9% | inactive: 102% | inactive: 92.8% | inactive: 108% | inactive: 121%
